Values of other authors in patent US20060014698A1, “Nebulized pharmaceutical compositions for the treatment of bronchial disorders” (priority 2004, published 2006).

Target: thrombin (Homo sapiens, UniProt P00734)
Conditions: direct thrombin inhibitor; stated as a known property, no method given; read-out: inhibitory constant (Ki)

**Q.** Which Ki does the source give for `CC1CNc2c(cccc2S(=O)(=O)N[C@@H](CCCNC(=N)N)C(=O)N2CC[C@@H](C)C[C@@H]2C(=O)O)C1` (stereo partly shown) [Argartroban, 1-[5-[(aminoiminomethyl)amino]-1-oxo-2-[[(1,2,3,4-tetrahydro-3-methyl-8-quinolinyl)sulfoyl]amino]pentyl]-4-methyl-2-piperidinecarboxylic acid monohydrate] here?
**A.** The Ki was roughly 40 nM.
